This is an account of results in PubChem BioAssay AID504523 (Broad Institute, 2011).

Amino acid sequences for entries named in this document (tags omitted).
UniProt Q14145, whole entry, looked up: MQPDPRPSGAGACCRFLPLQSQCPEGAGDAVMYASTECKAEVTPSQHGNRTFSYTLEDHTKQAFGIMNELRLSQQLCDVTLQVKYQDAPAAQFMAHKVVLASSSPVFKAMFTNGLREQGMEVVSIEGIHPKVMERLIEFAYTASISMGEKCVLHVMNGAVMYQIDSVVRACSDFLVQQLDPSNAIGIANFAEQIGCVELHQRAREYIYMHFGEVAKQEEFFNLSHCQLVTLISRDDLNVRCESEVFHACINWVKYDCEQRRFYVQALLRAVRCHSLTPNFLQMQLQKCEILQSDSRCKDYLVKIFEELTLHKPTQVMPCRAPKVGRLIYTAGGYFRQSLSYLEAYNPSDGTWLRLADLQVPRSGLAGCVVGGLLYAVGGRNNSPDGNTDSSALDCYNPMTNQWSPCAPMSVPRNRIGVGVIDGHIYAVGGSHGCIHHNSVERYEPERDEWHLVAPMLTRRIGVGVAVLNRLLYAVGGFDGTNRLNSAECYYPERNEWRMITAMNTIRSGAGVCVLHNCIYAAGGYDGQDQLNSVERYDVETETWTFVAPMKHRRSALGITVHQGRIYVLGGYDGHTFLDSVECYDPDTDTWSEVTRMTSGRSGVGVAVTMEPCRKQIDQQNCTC

The entries are a selection whose mix differs from that of the whole data set. The source made the active and inactive calls. Rule as the data show it: active = inhibition above about 12%; inconclusive = no clear call, values can overlap the other calls; inactive = below about 7.3%.

This test has as its target Kelch-like ECH-associated protein 1 (Homo sapiens) (UniProt Q14145). The experiment in a line: Keap1-Nrf2 protein-protein interaction inhibitors, primary screen, biochemical, fluorescence polarization, single point (AID 504523).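 Also: human Keap1 Kelch domain with fluorescein labeled Nrf2 9mer peptide probe; 0% = neutral control wells and 100% = peptide positive control; higher means more block of Keap1 binding to Nrf2 peptide.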 To be noted: Keap1 Kelch-Nrf2 peptide fluorescence polarization, 1536-well; at 9.4 µM; hits give high values. On the technique in general: Fluorescence polarisation rises when a labelled molecule tumbles more slowly, as on binding a larger partner.
Usually inhibition stands for the change of the read-out against control, counted positive when it falls. `COC(=O)C1(C)COP(=O)(N2CCCCCC2)OC1` (configuration not stated): the inhibition was inactive: -1.47%.
The same measure for `CC(C)c1ccc(OP(=O)(Nc2ccccn2)Oc2ccccc2F)cc1` (configuration not stated): inactive: 5.72%; for `ClCCSc1nnc(-c2cccnc2)o1`: inactive: -1.85%; for `Cc1ccc2nc3c(c(C)c2c1)CC(C(Cl)Cl)S3` (configuration not stated): inactive: -1.09%.
The same measure for `Cc1ccc(OP(=O)(Nc2ccc([N+](=O)[O-])cn2)Oc2ccc(C)cc2)cc1`: inactive: -1.39%; for `O=[N+]([O-])c1ccc(-c2cc([N+](=O)[O-])c(O)c([N+](=O)[O-])c2)cc1`: inactive: -4.07%.
With `COc1cc(C(=O)NCC2(N3CCOCC3)CCCCC2)ccc1OCC(C)C`, the inhibition was inactive: -1.59%.
The same measure for `C[As](=O)(O)c1cccc(C(=O)O)c1`: inactive: -4.42%; for `O=[As](O)(c1ccc(O)cc1)c1ccccc1O`: inactive: -0.501%.
The same measure for `COc1ccc(N/C(=N/P(=O)(N2CCOCC2)N2CCOCC2)N2CCOCC2)cc1`: inactive: -5.45%; for `O=[N+]([O-])c1cc(Oc2ccc([N+](=O)[O-])cc2C(F)(F)F)cc([N+](=O)[O-])c1`: inactive: 3.6%; for `COc1cc(I)ccc1[As](=O)(O)O`: inactive: 1.98%.
The same measure for `COc1ccc2nc(NP(=O)(c3ccccc3)c3ccccc3)sc2c1`: inactive: -0.813%; for `O=P1(N(CCCl)CCCl)OCCCN1CCCl` (configuration not stated): inactive: -3.11%; for `O=P1(N(CCCl)CCCl)Nc2ccccc2N1`: inactive: -3.66%.
In the case of `Cc1cc(=O)[nH]c(N[N+](=O)[O-])n1`, the inhibition was inactive: -6.98%.
The same measure for `O=C(OC1CN2CCC1CC2)C12CC3CC(CC(C3)C1)C2` (configuration not stated): inactive: -1.44%; for `Cc1c2c(nc3ccccc13)SC(C(Cl)Cl)C2` (configuration not stated): inactive: 2.02%.
The same measure for `Nc1cc(N)c2nonc2c1[N+](=O)[O-]`: inactive: 2.55%; for `CC(C)CC(=O)NC(Sc1ccc(Cl)cc1)C(Cl)(Cl)Cl` (configuration not stated): inactive: 1.31%; for `O=C(NC(Sc1ccncn1)C(Cl)(Cl)Cl)c1ccccc1` (configuration not stated): inactive: 3.57%.
As for `Oc1ccccc1CNc1ccccn1`, the inhibition was inactive: 0.899%.
Turning to `COc1ccccc1OP(=O)(Nc1ccc(C)cn1)Oc1ccccc1OC`, the inhibition was inactive: -0.759%.
In the case of `CN1CCCC(OC(=O)C(c2ccccc2)c2ccccc2)C1` (configuration not stated), the inhibition was inactive: -6.68%.
As to `Clc1ccc(Cl)c(NC2=NCC(CBr)S2)c1` (configuration not stated), the inhibition is inactive: -3.65%.
The same measure for `NC(=O)c1cc([N+](=O)[O-])cc([N+](=O)[O-])c1N`: inactive: -4.63%; for `Cc1ccc(N/C(=N/P(=O)(N2CCOCC2)N2CCOCC2)N2CCOCC2)cc1`: inactive: -5.51%; for `CN(C(=O)Cc1ccc(Cl)c(Cl)c1)[C@H]1CCCC[C@H]1N1CCCC1`: inactive: -2.3%.
The same measure for `CCN(N=Nc1nonc1N)c1nonc1N`: inactive: 3.43%; for `Nc1cccc2ccc([As](=O)(O)O)cc12`: inactive: -1.34%.
The same measure for `CN(C(=O)Cc1ccc(Cl)c(Cl)c1)[C@H]1CCCC[C@@H]1N1CCCC1`: inactive: -2.74%; for `Cc1ccc(NP(=O)(Oc2ccccc2F)Oc2ccccc2F)nc1`: inactive: -5.4%.
As for `Cc1cc(SC(NC(=O)c2ccc(F)cc2)C(Cl)(Cl)Cl)ncn1` (configuration not stated), the inhibition is inactive: -1.13%.
In the case of `CCOP(=O)(Nc1ccccc1)OCC`, the inhibition is inactive: -4.59%.
Turning to `CCCC1OP(N)(=O)OCC1CC` (configuration not stated), the inhibition was inactive: -0.995%.
The same measure for `CC(=O)Nc1ccc([As](=O)(O)O)cc1`: inactive: 0.322%; for `O=C(O)c1ccccc1[As](=O)(O)O`: inactive: -6.39%; for `O=P(Nc1nc2ccc(Cl)cc2s1)(c1ccccc1)c1ccccc1`: inactive: -1.1%.
The same measure for `COC(=O)C1(C)COP(=O)(Nc2ccccc2)OC1` (configuration not stated): inactive: 0.264%; for `O=[N+]([O-])c1cccc(NC2=NCC(CBr)S2)c1` (configuration not stated): inactive: -4.59%; for `O=C(O)CNc1ccc([As](=O)(O)O)cc1`: inactive: 2.28%.
The same measure for `CC(C)(C)C(=O)NC(Sc1ccncn1)C(Cl)(Cl)Cl` (configuration not stated): inactive: -27.9%; for `O=[N+]([O-])c1ncn(CCn2ncnc2[N+](=O)[O-])n1`: inactive: 3.91%; for `O=C(Nc1cc([As](=O)(O)O)ccc1O)c1ccccc1`: inactive: 1.03%.
For the molecule `O=P1(N(CCCl)CCCl)OCCCS1` (configuration not stated), the inhibition was inactive: -0.79%.
The same measure for `CN(C)C(=O)OCCc1n(C)cc[n+]1C`: inactive: -1.23%; for `CC(C)=N/N=C(\N)N[N+](=O)[O-]`: inactive: -1.2%.
The same measure for `CC1CCN(C(=O)Oc2c(Cl)cc(Cl)c3cccnc23)CC1`: inactive: 3.42%; for `C[N+]1=C2C=CC=CC=C2SC12C([N+](=O)[O-])=CC([N+](=O)[O-])=C[C-]2[N+](=O)[O-]` (configuration not stated): inactive: -2.07%; for `Nc1ccc([As](=O)(O)c2ccc(N)cc2)cc1`: inactive: -2.68%.
The same measure for `CCN(/C(=N/P(=O)(N1CCOCC1)N1CCOCC1)N1CCOCC1)c1ccc(OC)cc1`: inactive: -1.27%.
As for `CC(=O)N1C2C3N(C(C)=O)C1C1N(C(C)=O)C(C(N1C(C)=O)N3C(C)=O)N2C(C)=O`, the inhibition is inactive: -0.467%.
The same measure for `O=[N+]([O-])c1cccc2n[nH]nc12`: inactive: -3.31%; for `O=[N+]([O-])c1cc([N+](=O)[O-])c(CCNc2ccccc2)c([N+](=O)[O-])c1`: inactive: -1.93%; for `CCc1nc2c(n1)c1c(non1O)c1c2no[n+]1[O-]`: inactive: -0.179%.
The same measure for `Cc1ccc(NP(=O)(Oc2ccccc2)Oc2ccccc2)nc1`: inactive: 4.19%; for `c1nnnn1CCn1cnnn1`: inactive: -0.728%; for `O=P(Nc1nccs1)(c1ccccc1)c1ccccc1`: inactive: 0.691%.
The same measure for `CC(C)C(=O)NC(Sc1ccccc1)C(Cl)(Cl)Cl` (configuration not stated): inactive: -3.08%.
`C(Cc1nn[nH]n1)Cc1nn[nH]n1`: the inhibition was inactive: 0.0282%.
The same measure for `Nc1ccc([As](=O)(O)c2ccc([N+](=O)[O-])cc2)cc1`: inactive: -4.81%.
The same measure for `O=C(OC1CN2CCC1CC2)c1cccc(Cl)c1` (configuration not stated): inactive: -6.03%; for `O=[N+]([O-])c1ncn(CCn2cnc([N+](=O)[O-])n2)n1`: inactive: -2.24%.
The same measure for `CC(=O)NC(SC(=S)N(C)C)C(Cl)(Cl)Cl` (configuration not stated): inactive: -1.27%; for `O=[N+]([O-])c1ccc(O)c(/C=N/Nc2ccc([N+](=O)[O-])cc2[N+](=O)[O-])c1`: inactive: -0.351%; for `O=[As](O)(c1ccccc1)c1ccc(O)cc1`: inactive: 0.887%.
Take `C[C@H]1OP(=O)(Oc2ccccc2)[C@H](O)[C@H](O)[C@H]1N=[N+]=[N-]` (some centres not stated): the inhibition was inactive: -1.94%.
The same measure for `O=P(Nc1nc2ccccc2s1)(c1ccccc1)c1ccccc1`: inactive: -1.82%.
The same measure for `COc1ccc(N)c([N+](=O)[O-])c1[N+](=O)[O-]`: inactive: 4.68%.
The same measure for `CN(C)C1(CNC(=O)c2ccc(Cl)c(S(N)(=O)=O)c2)CCCCC1`: inactive: -0.424%; for `O=P(Nc1ccccn1)(c1ccc(Br)cc1)c1ccc(Br)cc1`: inactive: -2.26%; for `O=c1c2cc([N+](=O)[O-])ccc2[nH]c2c([N+](=O)[O-])cc([N+](=O)[O-])cc12`: inactive: -7.17%.
For `CN(C)C(=O)Oc1noc2ccccc12`, the inhibition was inactive: -1.36%.
For the molecule `CC(NC(=O)COC(=O)C(O)(c1ccccc1)c1ccccc1)c1ccccc1` (configuration not stated), the inhibition was inactive: 2.43%.
The same measure for `Cc1ccccc1OP(=O)(Nc1ccccn1)Oc1ccccc1C`: inactive: 3.85%.
The same measure for `Cc1ccc(OP(=O)(Nc2ccccn2)Oc2ccc(C)cc2)cc1`: inactive: 2.53%; for `CC(=O)NC(SC(=S)N(CC(C)C)CC(C)C)C(Cl)(Cl)Cl` (configuration not stated): inactive: 1.35%; for `COC(=O)c1cc2c(s1)N=C(c1ccccc1)N(C)P2(=O)N1CCOCC1` (configuration not stated): inactive: 0.263%.
The same measure for `CCC(=O)N1C2C3N(C(=O)CC)C1C1N(C(=O)CC)C(C(N1C(=O)CC)N3C(=O)CC)N2C(=O)CC`: inactive: -3.71%; for `O=C(OC1CN2CCC1CC2)c1ccccc1` (configuration not stated): inactive: -0.822%.
Consider `O=P1(N(CCCl)CCCl)OCCC2CCCCN21` (configuration not stated), for which the inhibition was inactive: -4.34%.
The same measure for `O=C(NC1CCS(=O)(=O)C1)NP(=S)(Oc1ccccc1)Oc1ccccc1` (configuration not stated): inactive: 3.5%; for `CCNC(=S)/N=C(\N)N[N+](=O)[O-]`: inactive: -1.48%; for `Cc1ccc(NP(=O)(Oc2cccc(C)c2)Oc2cccc(C)c2)nc1`: inactive: 4.97%.
The same measure for `c1ccc(-c2nn[nH]n2)c(-c2nn[nH]n2)c1`: inactive: -3.1%.
The same measure for `CC(=O)Nc1ccc(Oc2c([N+](=O)[O-])cc([N+](=O)[O-])cc2[N+](=O)[O-])cc1`: inactive: -3.19%.
As for `CC(=O)Nc1ccc([As](=O)(O)O)c(O)c1`, the inhibition was inactive: -4.51%.
The same measure for `COC(=O)C1(C)COP(=O)(NCc2ccccc2)OC1` (configuration not stated): inactive: 1.06%.
The same measure for `CC(=O)c1ccc(N2CC2c2ccncc2)cc1` (configuration not stated): inactive: 3.29%; for `N#C/C(=C\c1ccc(N(CCBr)CCBr)cc1)C(N)=O`: inactive: -1.97%; for `C[C@H]1OP(=O)(Oc2ccccc2)C[C@@H]2O[C@@H]21` (some centres not stated): inactive: -1.16%.
Regarding `C[C@@H]1C=CCP(=O)(Oc2ccccc2)O1` (some centres not stated), the inhibition was inactive: -1.58%.
The same measure for `Cc1ccccc1CN(C)C(=O)COC(=O)C(O)(c1ccccc1)c1ccccc1`: inactive: -0.508%; for `CCc1cc(O)c([N+](=O)[O-])c(C)c1[N+](=O)[O-]`: inactive: -2.45%.
The same measure for `CC(C)(C)C(=O)NC(Sc1ccccc1)C(Cl)(Cl)Cl` (configuration not stated): inactive: -0.134%; for `CCOc1ccc(C2=NCC(CBr)S2)cc1` (configuration not stated): inactive: -2.5%; for `O=P1(Nc2nc3ccc(Cl)cc3s2)COc2ccccc2O1` (configuration not stated): inactive: -2.4%.
